From patent publication US8268823B2, “Medical use of triazine derivatives” (University of Greenwich, priority 2006, dated 2012)
Values joined by “and” are separate entries in the source; they are usually repeats but may differ in a detail not shown here. Identical values can stand only once.

Tested on: sodium channel
Test: veratrine-evoked uptake of [14C]guanidine into rat forebrain synaptosomes ([14C]guanidine flux)
Format: biochemical

## Nc1nnc(-c2cccc(Cl)c2Cl)c(N)n1 [Example 1, 5(3)-amino-6-(2,3-dichlorophenyl)-2,3(2,5)-dihydro-3(5)-imino-1,2,4-triazine, reference compound]
  Hill (uptake of [14C]guanidine): 0.93 and 0.71
